The source of these data is PubChem BioAssay AID540277 (National Center for Advancing Translational Sciences (NCATS), 2011).

Amino acid sequences for entries named in this document (tags omitted).
UniProt Q8NER1, whole entry: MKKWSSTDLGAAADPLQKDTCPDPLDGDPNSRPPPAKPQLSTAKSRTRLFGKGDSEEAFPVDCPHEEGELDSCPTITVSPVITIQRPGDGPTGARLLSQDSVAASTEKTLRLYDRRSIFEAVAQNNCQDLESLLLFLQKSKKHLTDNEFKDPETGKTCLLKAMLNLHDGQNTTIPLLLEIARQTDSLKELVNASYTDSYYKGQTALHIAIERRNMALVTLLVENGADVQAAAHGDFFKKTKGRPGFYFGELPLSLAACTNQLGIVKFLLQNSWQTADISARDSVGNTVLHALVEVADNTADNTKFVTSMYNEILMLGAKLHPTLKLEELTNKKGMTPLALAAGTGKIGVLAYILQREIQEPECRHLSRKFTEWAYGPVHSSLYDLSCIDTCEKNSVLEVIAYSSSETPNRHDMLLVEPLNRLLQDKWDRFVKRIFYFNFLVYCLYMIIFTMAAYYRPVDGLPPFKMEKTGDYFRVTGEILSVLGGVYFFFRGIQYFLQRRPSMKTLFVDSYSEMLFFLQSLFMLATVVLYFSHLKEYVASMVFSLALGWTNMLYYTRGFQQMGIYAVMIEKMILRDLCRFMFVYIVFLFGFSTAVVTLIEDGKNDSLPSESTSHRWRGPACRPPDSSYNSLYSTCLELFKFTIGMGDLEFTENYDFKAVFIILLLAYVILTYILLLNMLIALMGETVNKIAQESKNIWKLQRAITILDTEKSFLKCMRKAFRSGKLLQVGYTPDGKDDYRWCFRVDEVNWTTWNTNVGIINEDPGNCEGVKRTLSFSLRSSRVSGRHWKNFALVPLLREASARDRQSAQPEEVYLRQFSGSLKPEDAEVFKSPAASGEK

SMILES strings stand for the structures. The list shows a part of the results, in another mix than the full data. Results filed as inconclusive are left out. Activity calls are given as the source filed them. No stated cut-off is given here; in the data, active means potentiation above about 80%; inconclusive means between about 30% and that limit; inactive means weaker than that.

The target of this experiment is Transient receptor potential cation channel subfamily V member 1 (Homo sapiens) (UniProt Q8NER1). The experiment is described as follows: HTS Assay for Compounds that Act as Potentiators of the Vanilloid Receptor 1. Further: 0% is about no effect. Conditions: TRPV1-expressing cells, Fluo-8 calcium influx, capsaicin EC20 potentiation; at 8.33 µM; hits give high values. The text has this:
The transient receptor potential ion channel, family V, number 1, (TRPV1) is one of the most important molecular transducers of painful stimuli and a potential target for analgesic drug development. Although recent clinical trials with orthosteric antagonists have not produced a successful drug because of a hyperthermia side effect and their tendency to block thermal noxious pain, this ion channel is undeniably well placed in the pain pathway, and the idea of blocking pain signals before they enter the CNS is an excellent concept and of proven efficacy when TRPV1 agonists are used. […]
Upon TRPV1 activation in TRPV1 cells, the channel opens and extracellular cations flow through the channel into the cytosol. […] The amount of accumulated calcium is precisely quantified using the FDSS kinetic reader and the calcium dye. […] Plates will be loaded into the FDSS kinetic reader and a 1 sec / cycle for 10 second baseline signal will be measured. Compound library will then be added with a pintool at 23 nl and measured kinetically for 3 minutes. This portion of the read is considered the agonist portion of the screen. […] Signal will be measured kinetically for an additional 2 minutes. This portion of the read is considered the allosteric enhancer portion of the screen. The FDSS reader has a standard filter set capable of measuring calcium bound Fluo-8 (ex=480 and em=520 nm).
With `CCC(C)N(CC(C)C)C(=S)SC(NC(C)=O)C(Cl)(Cl)Cl` (configuration not stated), the potentiation was inactive: 28.4%.

As for `CCc1ccc(OP(C)(=O)O)cc1`, the potentiation was inactive: -7.87%.
